The source of these data is US8329686B2, “Isatin analogues and uses therefor” (Washington University, priority 2006, dated 2012).

In test [1] the target is T1, caspase-3 (Homo sapiens, UniProt P42574).
T1 construct: purchased Sigma-Aldrich (St. Louis, Mo.)
T1 sequence (P42574 29-175 limits assumed): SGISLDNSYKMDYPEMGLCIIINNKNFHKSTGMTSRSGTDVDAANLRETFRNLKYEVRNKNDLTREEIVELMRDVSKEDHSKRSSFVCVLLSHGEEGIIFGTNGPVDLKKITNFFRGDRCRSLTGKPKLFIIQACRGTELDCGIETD
T1 sequence (P42574 176-277 limits assumed): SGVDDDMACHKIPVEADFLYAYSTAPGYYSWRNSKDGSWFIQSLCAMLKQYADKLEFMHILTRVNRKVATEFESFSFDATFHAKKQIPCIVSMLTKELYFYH
The experiment in a line: Enzyme inhibition assay, caspase 3 (fluorogenic Ac-DEVD-AMC). It is filed as biochemical.

Test [2] addresses T2, caspase 6 (Homo sapiens, UniProt P55212).
T2 construct: purchased Sigma-Aldrich (St. Louis, Mo.)
T2 sequence (P55212 24-179 limits assumed): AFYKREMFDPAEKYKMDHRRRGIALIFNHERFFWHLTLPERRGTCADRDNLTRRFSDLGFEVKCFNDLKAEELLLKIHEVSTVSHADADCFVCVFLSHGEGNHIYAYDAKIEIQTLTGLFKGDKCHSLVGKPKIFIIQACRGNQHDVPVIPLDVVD
T2 sequence (P55212 194-293 limits assumed): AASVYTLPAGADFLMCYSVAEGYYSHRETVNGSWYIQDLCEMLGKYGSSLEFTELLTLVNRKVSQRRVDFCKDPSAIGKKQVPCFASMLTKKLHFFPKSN
The test is described as follows: Enzyme inhibition assay, caspase 6 (fluorogenic Ac-VEID-AMC). Type of test: biochemical.

SMILES strings stand for the structures. Read-outs that look alike come from different tables or passages of the source.

Usually IC50 stands for the point on the concentration scale where inhibition reaches its midpoint.

On to `CC(=O)N[C@@H](CC(=O)O)C(=O)N[C@@H](CCC(=O)O)C(=O)N[C@H](C(=O)N[C@H](C=O)CC(=O)O)C(C)C` [Ac-DEVD-CHO, reference compound], for which the IC50 in test [1] stood at 4.8 ± 2 nM; in test [1] (Table 2, read-out: IC50 (nM) Caspase 3), 3.8 ± 0.8 nM.

As to `CC[C@H](C)[C@H](NC(=O)[C@H](CCC(=O)O)NC(=O)[C@@H](NC(C)=O)C(C)C)C(=O)N[C@H](C=O)CC(=O)O` [Ac-VEID-CHO, reference compound], the IC50 in test [2] (Table 1) came out at 60.5 ± 7.6 nM; in test [2] (Table 2) it was 9.6 ± 2.1 nM.
